These are literature values, as cited in US20060036094A1, “Method for producing zoanthamine alkaloid and intermediate used in same” (priority 2004, published 2006).

In this data set the test system is ovariectomized mice.

As for `CC1=CC(=O)[C@H]2CC(=O)[C@H]3[C@@](C)(C[C@@]45OC(=O)C[C@]3(C)[C@]4(C)CC[C@]34C[C@@H](C)C[C@H](CN35)O4)[C@@H]2C1` [norzoanthamine], the “suppression of loss of bone weight and strength” value was “significantly suppress loss of bone weight and strength”.
